SMILES strings stand for the structures. pIC50: −log10 of the molar value.

Sequences of proteins named here, by UniProt entry; tags and fusion partners are left off. A change or cut given only in a name is not applied to a line headed by its entry.
UniProt P07711: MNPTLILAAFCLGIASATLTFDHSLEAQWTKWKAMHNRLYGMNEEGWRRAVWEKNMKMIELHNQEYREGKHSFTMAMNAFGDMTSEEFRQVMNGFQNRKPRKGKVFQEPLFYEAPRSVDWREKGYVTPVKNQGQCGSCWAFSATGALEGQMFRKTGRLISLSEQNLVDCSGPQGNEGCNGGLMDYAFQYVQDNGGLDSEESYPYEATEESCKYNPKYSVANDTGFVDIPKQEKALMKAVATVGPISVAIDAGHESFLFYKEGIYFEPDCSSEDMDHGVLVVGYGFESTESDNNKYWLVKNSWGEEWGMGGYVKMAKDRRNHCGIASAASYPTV

For 1 molecule, IC50 results are on record in ChEMBL document CHEMBL1136415, “3-Acylamino-azetidin-2-one as a novel class of cysteine proteases inhibitors” (Bioorg Med Chem Lett, 2003).

The experiment addresses Procathepsin L (Homo sapiens, UniProt P07711). Description: Inhibition of recombinant human Cathepsin L.

`O=C(N[C@@H](Cc1ccccc1)C(=O)N[C@@H]1C(=O)N[C@@H]1Oc1ccccc1)OCc1ccccc1`: the pIC50 is 8.59.

A word on the pIC50: it is the negative decadic logarithm of the IC50, by convention in mol/L.
